Earlier results on 1 substance are cited in US20070141059A1, “Use of cathepsin s inhibitors for treating an immune response caused by administration of a small molecule therapeutic or biologic” (AXYS Pharmaceuticals, Inc., priority 2003, published 2007).

The conditions of the series: patients taking the biologic.

In the case of “Referon®-A: biologic; biological agent that induces the production of specific immunoglobulins”, the “patients generating neutralizing antibodies” value is reported as 25%.
